For orientation: pIC50 means −log10 of the IC50, conventionally taken in molar units. A high value points to a small IC50.

By UniProt entry, the sequences of proteins in these tests, tags left out. Residues count along the entry.
UniProt P41597, 1-360 isoform 2: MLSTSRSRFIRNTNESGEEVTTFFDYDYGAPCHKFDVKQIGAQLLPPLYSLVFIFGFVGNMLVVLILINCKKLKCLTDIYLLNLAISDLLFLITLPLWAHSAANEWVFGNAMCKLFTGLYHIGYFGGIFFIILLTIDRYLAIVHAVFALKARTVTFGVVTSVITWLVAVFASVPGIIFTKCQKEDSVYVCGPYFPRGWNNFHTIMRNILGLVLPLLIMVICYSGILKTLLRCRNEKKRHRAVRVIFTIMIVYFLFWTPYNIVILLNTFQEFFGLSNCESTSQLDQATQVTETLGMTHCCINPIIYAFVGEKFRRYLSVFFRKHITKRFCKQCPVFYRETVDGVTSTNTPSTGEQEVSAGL

In the test the target is CCR2 receptor (Homo sapiens, UniProt P41597). Nature of the test: Inhibition of MCP-1 induced Ca-flux in human THP-1 cells. The settings on record: inhibition of specific MCP-1 (10^-7 M hMCP-1) induced Ca2+ flux in human THP-1 cells; pIC50 = -log IC50 (molar). As to the method:
C. Pharmacological Example Inhibition of MCP-1 Induced Ca-flux in Human THP-1 Cells
MCP-1 binding to the CCR2 receptor induces a rapid and transient intracellular release of Ca^2+ (secondary messenger) in several cell lines (Charo et al, PNAS 1994). Free Ca^2+ levels can be measured using a Ca^2+ sensitive dye. When the CCR2 receptor is blocked with a CCR2 receptor antagonist, the MCP-1 induced release of Ca^2+ is inhibited.
Human THP-1 cells (monocytic cell line, ATCC TIB-202) were cultured in RPMI 1640 medium supplemented with 10% fetal calf serum (FCS), 1% L-Glutamine, penicillin (50 U/ml) and streptomycin (50 μg/ml) (all GIBCO BRL, Gent). After centrifugation, cells were loaded for 30 minutes with the Ca^2+ sensitive fluorescent dye Fluo-3 AM (Molecular Probes, Leiden, Netherlands) (2 million cells/ml in RPMI medium containing 4 μM Fluo-3 AM, 20 mM HEPES, 0.1% Bovine Serum Albumin (BSA) and 5 mM probenecid). Excess dye was removed by 3-fold washing with buffer (5 mM HEPES, 140 mM NaCl, 1 mM MgCl2, 5 mM KCl, 10 mM glucose, 2.5 mM probenecid, 1.25 mM CaCl2, 0.1% BSA; all further incubations were done in this buffer). Cells were plated at a density of 150 000 cells/well in dark-wall 96-well plates (Costar, Cambridge, Mass.) and sedimented by centrifugation (1 minute). The cells were pre-incubated for 20 minutes with test compound. Then, 10^−7 M hMCP-1 (Bachem, Bubendorf, Switserland) was added. Changes in intracellular free Ca^2+ concentration were measured using the Fluorescent Imaging Plate Reader (FLIPR, Molecular Devices, Munchen, Germany). Fluorescence was recorded every second from 10 seconds before the addition of the MCP-1 till 2 minutes after the addition (first minute: 60 records with 1 second intervals, second minute 20 records with 3 second intervals).
The maximal fluorescence obtained during this time frame was used for further calculations.
Table 4 reports pIC50 values obtained in the above-described test for compounds of formula (I). pIC50 defines −log IC50 wherein IC50 is the molar concentration of the test compound which inhibits 50% of specific MCP-1 induced Ca^2+ flux.
On the technique in general: Calcium flux is commonly read through the fluorescence of an indicator in the cells.
As to `O=c1[nH][nH]c(=O)c2c1[nH]c(=S)n2C(c1ccc(Cl)c(Cl)c1)C1CCCCC1` (stereo not shown), the negative-log IC50 (pIC50) came to 5.55. Under `CCOC(=O)c1c[nH]c(=S)n1C(CC)c1ccc(F)c(F)c1` (stereo not shown) stands 6.125; under `CCC(c1ccc(Cl)c(Cl)c1)n1c(C(=O)NNC(C)=O)c[nH]c1=S` (stereo not shown) [Compound 119], 5.78. `CCC(c1ccc(F)c(F)c1)n1c(=S)[nH]c2c(=O)[nH][nH]c(=O)c21` (stereo not shown) came in with a negative-log IC50 (pIC50) of 6.145. Under `CCC(c1ccc(Br)c(Br)c1)n1c(C(=O)OC)c(C(=O)OC)[nH]c1=S` (stereo not shown) stands 7.53; under `CCC(c1ccc(Cl)c(Cl)c1)n1c(=S)[nH]c2c(=O)[nH][nH]c(=O)c21` (stereo not shown), 6.28. Under `O=c1[nH][nH]c(=O)c2c1[nH]c(=S)n2C(c1ccccc1)c1ccc(Cl)c(Cl)c1` (stereo not shown) stands 5.19.

These data come from patent US7511068B2, “Mercaptoimidazoles as CCR2 receptor antagonists” (Janssen Pharmaceutica, N.V., priority 2003, dated 2009).
